{
  "sequences": {"note": "The chains behind the UniProt entries cited, without tags or fusion partners. Where a name states a change or a piece, a line headed by the entry shows the natural chain unless it says otherwise.", "UniProt P0A6W3": "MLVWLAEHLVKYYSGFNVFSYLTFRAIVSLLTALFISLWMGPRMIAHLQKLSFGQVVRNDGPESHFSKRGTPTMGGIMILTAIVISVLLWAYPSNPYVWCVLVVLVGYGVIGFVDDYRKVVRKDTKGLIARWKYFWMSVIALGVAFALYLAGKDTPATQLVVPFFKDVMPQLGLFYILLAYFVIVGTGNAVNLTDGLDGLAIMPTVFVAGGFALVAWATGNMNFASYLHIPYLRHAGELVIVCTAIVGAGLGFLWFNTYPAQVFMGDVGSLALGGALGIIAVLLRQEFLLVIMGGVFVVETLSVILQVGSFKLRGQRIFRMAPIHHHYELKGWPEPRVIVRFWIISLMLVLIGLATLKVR"},
  "source": "patent EP2527351B1",
  "about": "“Lipophosphonoxins, method of their preparation and use” (priority 2011, dated 2012)",
  "origin": "cited, not measured here",
  "target": "MraY translocase (Escherichia coli, UniProt P0A6W3)",
  "conditions": "cited from earlier work",
  "data": [
    {"substance": "liposidomycins [LPMs]", "values": [
      {"measurement": "IC50", "result": 0.05, "unit": "µg/mL"}
    ]}
  ]
}
